Laboratory results: US20150011501A1, “PARTIALLY DEPOLYMERIZED GLYCOSAMINOGLYCAN SILVER AND GOLD SALTS” (priority 2012, published 2015)

Assay: Stability test (visual inspection of colour in the dark and under ambient light)
Type: physicochemical
Conditions: precipitated product
Method: After this time, a visual inspection of the products was carried out and the products were protected in the dark again. After 12 hours, another visual inspection of the products was carried out. The products were then exposed to ambient light. After 5 hours, a visual inspection of the products was carried out.

Measured: color (visual inspection)

Partially Depolymerized Silver Chondroitin Sulfate (Bleaching Agent: Sodium Thiosulfate) [comparative example 6]
black: after 1 hour in the dark | after 5 hours of exposure to ambient light | after 12 hours in the dark
